Tested on: intestinal α-glucosidase
Test: Everted intestinal sleeve assay
Design: species or system Sprague–Dawley rats
Settings: 0.17 mM inhibitor, sucrose 1.5 mM, versus blank
Experimental: ^1H NMR and ^13 C NMR spectra were carried out using a 500 MHz Avance spectrometer (Bruker, USA) or a Varian Mercury 400 MHz spectrometer. Chemical shifts were measured relative to the residual solvent peaks of CDCl3 with tetramethylsilane as the internal standard. High-resolution mass spectra were recorded on an AB SCIEX Triple TOF 5600+ spectrometer. The in vitro inhibitory activity and kinetic assay of α-glucosidase were measured by a microplate reader (Synergy HTX, BioTek Instruments Inc., Winooski, VT, USA). Fluorescence spectra were conducted on a spectrofluorometer (LS55, Perkin Elmer Inc., Waltham, MA, USA). All of the CD spectra were measured at 298 K with a circular spectrometer (Chirascan, Applied Photophysics Ltd., UK). Titration microcalorimetry measurement conducted on a Nano-ITC SV instrument (TA Instruments Ltd., UK). The surgeries were performed under anesthesia and all efforts were made to minimise animal suffering. The blood glucose levels were determined via a glucose detection kit (Robio Co., Ltd., Shanghai, China). […] The concentrations of glucose in the soaking solution and intestinal sleeve were detected using S-10 biosensor analyzer (Sieman Technology Co., Ltd., Shenzhen, China). All reaction progress was monitored by thin-layer chromatography (TLC) on silica gel GF254 (Qingdao Haiyang Chemical Co., Ltd., Qingdao, China) with ultraviolet detection. […]

**Q.** Which “total concentration of glucose” value (5–90 min) does the source give for C[C@H]1O[C@H](O[C@H]2[C@H](O)[C@@H](O)[C@@H](O[C@H]3[C@H](O)[C@@H](O)C(O)O[C@@H]3CO)O[C@@H]2CO)[C@H](O)[C@@H](O)[C@@H]1N[C@H]1C=C(CO)[C@@H](O)[C@H](O)[C@H]1O (some centres unmarked) [Acarbose, acarbose, reference compound] here?
**A.** much lower than that of the blank

**Q.** And the “glucose concentration in the intestinal sleeves” value?
**A.** lower than that of blank

— paper PMC6522914, “Benzonate derivatives of acetophenone as potent α-glucosidase inhibitors: synthesis, structure–activity relationship and mechanism” (Journal of Enzyme Inhibition and Medicinal Chemistry, 2019)
